From ChEMBL document CHEMBL1125142, “Highly selective kappa-opioid analgesics. 3. Synthesis and structure-activity relationships of novel N-[2-(1-pyrrolidinyl)-4- or -5-substituted-cyclohexyl]arylacetamide derivatives” (1990)

Sequences of proteins named here, by UniProt entry; tags and fusion partners are left off. A change or cut given only in a name is not applied to a line headed by its entry.
UniProt P41144: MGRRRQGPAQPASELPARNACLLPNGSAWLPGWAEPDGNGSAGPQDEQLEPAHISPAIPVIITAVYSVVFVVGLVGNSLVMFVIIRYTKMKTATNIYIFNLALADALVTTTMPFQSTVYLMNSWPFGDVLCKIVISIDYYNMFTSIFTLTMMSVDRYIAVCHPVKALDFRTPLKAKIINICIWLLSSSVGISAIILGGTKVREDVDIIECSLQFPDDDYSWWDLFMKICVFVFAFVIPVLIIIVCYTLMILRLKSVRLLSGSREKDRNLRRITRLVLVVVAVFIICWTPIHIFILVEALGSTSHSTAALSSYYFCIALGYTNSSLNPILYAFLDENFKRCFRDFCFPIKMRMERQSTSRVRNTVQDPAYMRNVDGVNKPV

Key:
[1] = target: Kappa-type opioid receptor (Cavia porcellus) (UniProt P41144); assay: In vitro binding selectivity for mu to kappa opioid receptors.
[2] = target: Kappa-type opioid receptor (Cavia porcellus) (UniProt P41144); assay: Dose required to produce 50 percent of maximum possible analgesic activity was evaluated by rat paw pressure test (iv)

Row | Structure (SMILES) | Ratio [1] | Ratio [2]
1 | CN(C(=O)Cc1cccc2sccc12)[C@H]1CCCC[C@@H]1N1CCCC1 | 110 | 
2 | CO[C@H]1CC(N(C)C(=O)Cc2cccc3sccc23)[C@@H](N2CCCC2)C[C@H]1OC (some centres not stated) |  | 51
